Reference: ChEMBL document CHEMBL4219197, “Synthesis, biological evaluation and SAR of naftopidil-based arylpiperazine derivatives” (Bioorg Med Chem Lett, 2018)

species on record: Homo sapiens; assay: Selectivity ratio of IC50 for alpha 1B adrenergic receptor (unknown origin) to IC50 for alpha 1A adrenergic receptor (unknown origin)

Row | Structure (SMILES) | Ratio IC50
1 | Cl.Cl.Fc1ccc(N2CCN(CCc3ccc(COc4ccc5c(c4)CCCC5)cc3)CC2)cc1 | 1
2 | COc1ccc(N2CCN(CCc3ccc(COc4ccc5c(c4)CCCC5)cc3)CC2)cc1.Cl.Cl | 16.7
3 | Cl.Cl.Clc1cccc(N2CCN(CCc3ccc(COc4ccc5c(c4)CCCC5)cc3)CC2)c1 | 0.8
4 | Cl.c1ccc(C2CCN(CCc3ccc(COc4ccc5c(c4)CCCC5)cc3)CC2)cc1 | 1.2
5 | Cc1cccc(N2CCN(CCc3ccc(COc4ccc5c(c4)CCCC5)cc3)CC2)c1.Cl.Cl | 1.2
